Assay results taken from patent US7897758B2, “Activators for oligonucleotide and phosphoramidite synthesis” (dated 2011).
Read-outs that look alike come from different tables or passages of the source.

How the values were obtained:
[1] = Solubility of tetrazole derivatives in acetonitrile (saturated solution, NaOH titration); conditions: 25° C.; for maximum concentration / solubility in acetonitrile: Example 1
[2] = 25° C., prior-art activators, source not given, cited from earlier work
[3] = prior-art activators, source not given; cited from earlier work
[4] = Hygroscopy: weight gain at 75% relative humidity; conditions: 8 days
[5] = Coupling reaction of DMT-rA(tac)si-amidite (23) with dT-si (24) in a NMR tube (31P-NMR conversion); conditions: for time after which the coupling reaction was complete: amidite (23) to product (25), P-NMR
[6] = Miscibility of activator solutions with deblock- and capping-solutions (visual inspection for precipitates); conditions: for observation, mixed with Deblock: activator solution in acetonitrile (0.45 M or 0.5 M as printed) + 3% trichloroacetic acid in dichloromethane; for observation, mixed with Deblock / observation, mixed with Cap A + Cap B / observation, mixed with Fast Cap A + Cap B: ratios 1/9, 1/1 and 9/1 v/v; for observation, mixed with Cap A + Cap B / observation, mixed with Fast Cap A + Cap B: activator solution in acetonitrile (0.45 M or 0.5 M as printed); for observation, mixed with Deblock, ratio 1/1: 1/1 v/v
[7] = Acidity (pKa) of 5-substituted 1H-tetrazoles by NaOH titration; conditions: titration with 0.100 M NaOH in acetonitrile/water 1/1, glass electrode
[8] = time 90 sec., ambient temperature, deuterated acetonitrile

FC(F)(F)c1cc(-c2nn[nH]n2)cc(C(F)(F)F)c1
Solubility [1]: 0.94 mol/ltr. | maximum concentration / solubility in acetonitrile [1]: 940 mM

O=[N+]([O-])c1ccc(-c2nnn[nH]2)cc1
maximum concentration / solubility in acetonitrile ([2]; listed as 5-(4-nitrophenyl)-1H-tetrazole (7)): low solubility | maximum concentration / solubility in acetonitrile [2]: 120 mM | pKa-value [3]: 3.7

FC(F)(F)c1cc(-c2nnn[nH]2)cc(C(F)(F)F)c1
hygroscopy of the solid ([4]; 50 g sample, 75% relative humidity): not hygroscopic | weight gained ([4]; 50.013 g dried sample, 75-76% relative humidity, ambient temperature): less than 3 mg | time after which the coupling reaction was complete [5]: 5 min | Conversion [5, 8]: 73% | Conversion ([5]; time 180 sec.): 79% | Conversion ([5]; time 240 sec. (4 minutes)): 94% | Conversion ([5]; time 300 sec.): 100% | precipitation on mixing with deblock or capping solutions in any ratio ([6]; 0.5 M solution in acetonitrile): without concomitant precipitation of solid materials | observation, mixed with Deblock [6]: clear solution | observation, mixed with Cap A + Cap B [6]: clear solution | observation, mixed with Fast Cap A + Cap B [6]: clear solution

c1ccc(-c2nnn[nH]2)cc1
Acidity pKa [7]: 4.8 | Solubility [1]: 0.08 mol/ltr. | maximum concentration / solubility in acetonitrile [1]: 80 mM

CCSc1nnn[nH]1
Acidity pKa [7]: 4.2 | Solubility [1]: 1.52 mol/ltr. | maximum concentration / solubility in acetonitrile [1]: 1520 mM | time after which the coupling reaction was complete [5]: 17 min | Conversion [5, 8]: 64% | Conversion ([5]; time 150 sec. (2.5 minutes)): 75% | Conversion ([5]; time 180 sec.): 78% | Conversion ([5]; time 300 sec.): 87% | Conversion ([5]; time 480 sec.): 91% | Conversion ([5]; time 600 sec.): 96% | Conversion ([5]; time 720 sec.): 96% | Conversion ([5]; time 840 sec.): 97% | Conversion ([5]; time 1020 sec.): 100%

N#Cc1nc[nH]c1C#N
observation, mixed with Deblock, ratio 1/1 ([6]; 0.5 M in acetonitrile + 3% trichloroacetic acid in dichloromethane): immediate formation of precipitates | observation, mixed with Deblock, ratio 1/1 ([6]; 0.5 M in acetonitrile + 3% trichloroacetic acid in dichloromethane, listed as 4,5-Dicyanoimidazole): solid particles | observation, mixed with Deblock, ratio 1/9 ([6]; 0.5 M in acetonitrile + 3% trichloroacetic acid in dichloromethane, 1/9 v/v, listed as 4,5-Dicyanoimidazole): precipitate | observation, mixed with Deblock, ratio 9/1 ([6]; 0.5 M in acetonitrile + 3% trichloroacetic acid in dichloromethane, 9/1 v/v): ratio 9/1: clear | observation, mixed with Cap A + Cap B [6]: clear solution | observation, mixed with Fast Cap A + Cap B [6]: clear solution

c1ccc(CSc2nnn[nH]2)cc1
Acidity pKa [7]: 4.2 | Solubility [1]: 0.44 mol/ltr. | maximum concentration / solubility in acetonitrile [1]: 440 mM

1H-tetrazole
maximum concentration / solubility in acetonitrile [2]: 450 mM | pKa-value [3]: 4.8 | observation, mixed with Deblock [6]: clear solution | observation, mixed with Cap A + Cap B [6]: clear solution | observation, mixed with Fast Cap A + Cap B [6]: clear solution
